In EP4831169A1, “NOVEL COMPOUND USED AS CBP/P300 INHIBITOR, AND PHARMACEUTICAL COMPOSITION FOR PREVENTING OR TREATING CANCER, INFLAMMATORY DISORDERS, OR AUTOIMMUNE DISEASES COMPRISING SAME AS ACTIVE INGREDIENT” (dated 2026) one finds IC50 data, which are given here for 16 compounds.

By UniProt entry, the sequences of proteins in these tests, tags left out. Residues count along the entry.
UniProt Q92793, 1085-1192 limits assumed: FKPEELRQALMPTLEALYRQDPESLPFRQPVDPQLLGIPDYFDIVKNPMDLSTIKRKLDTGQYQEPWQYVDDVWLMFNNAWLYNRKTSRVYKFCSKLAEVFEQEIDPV

Where only a bound is given, the exact number is not on record here.

In assay [1] the target is CBP BRD protein (Homo sapiens, UniProt Q92793). Briefly: CBP bromodomain TR-FRET inhibitory activity assay. To be noted: read-out: CBP BRD IC50, Table 3.
Assay [2] has as its target BRD4 (BD1) protein (Homo sapiens, UniProt O60885). Nature of the assay: BRD4 bromodomain TR-FRET inhibitory activity assay. To be noted: read-out: BRD4 (BD1) IC50, Table 4. A general note: In TR-FRET formats the signal depends on donor and acceptor labels being close together.

`Cn1cc(-c2cc3nc(-c4cncn4C)n(-c4ccc5c(c4)n(C)c(=O)n5C)c3cc2F)cn1`: the results for the IC50 in assay [1] and in assay [2] were < 0.5 µM and > 5 µM, respectively.

As to `CC(C)Nc1cc(-n2c(-c3cncn3C)nc3cc(-c4cnn(C)c4)c(C(F)(F)F)cc32)cc2c1n(C)c(=O)n2C`, the IC50 (as a rule, the point on the concentration scale where inhibition reaches its midpoint) was < 0.5 µM in assay [1] and > 5 µM in assay [2].

For `CC(=O)Nc1ccc(-c2cc3nc(-c4cncn4C)n(-c4cc(NC(C)C)c5c(c4)n(C)c(=O)n5C)c3cc2F)cc1`, the IC50 in assay [1] was < 0.5 µM; in assay [2] it was 0.5 to 5 µM.

As for `CNS(=O)(=O)c1ccc2nc(-c3c[nH]c4cc(C)ccc34)n(-c3cc(C4CCOCC4)c4c(c3)n(C)c(=O)n4C)c2c1`, the values for the IC50 in assay [1] and in assay [2] were < 0.5 µM and > 5 µM, respectively.

With `COc1cc2c(cc1-c1cnc(C)s1)nc(C(C)(C)C)n2-c1cc(N2CCC(C)(O)CC2)c2c(c1)n(C)c(=O)n2C`, the IC50 was < 0.5 µM in assay [1] and 0.5 to 5 µM in assay [2].

Regarding `CC(C)C(=O)Nc1ccc(-c2cc3nc(-c4cncn4C)n(-c4ccc5c(c4)n(C)c(=O)n5C)c3cc2F)cc1`, the 50% inhibitory concentration (IC50) in assay [1] is < 0.5 µM; in assay [2], > 5 µM.

For the compound `Cn1cc(-c2cc3nc(-c4cncn4C)n(-c4cc(N5CCOCC5)c5c(c4)n(C)c(=O)n5C)c3cc2OC(F)F)cn1`, the IC50 was < 0.5 µM in assay [1] and 0.5 to 5 µM in assay [2].

As for `C[C@H]1CCN1c1cc(-n2c(-c3cncn3C)nc3cc(-c4cnn(C)c4)c(F)cc32)cc2c1n(C)c(=O)n2C`, the IC50 in assay [1] is < 0.5 µM; in assay [2], > 5 µM.

As for `Cn1cc(-c2cc3nc(-c4cncn4C)n(-c4cc(N5CC(C)(O)C5)c5c(c4)n(C)c(=O)n5C)c3cc2C(F)F)cn1`, the IC50 in assay [1] is < 0.5 µM; in assay [2], 0.5 to 5 µM.

In the case of `Cn1cncc1-c1nc2cc(-c3cnn(CC(F)(F)F)c3)c(F)cc2n1-c1cc(N2CCOCC2)c2c(c1)n(C)c(=O)n2C`, the values for the 50% inhibitory concentration (IC50) in assay [1] and in assay [2] were < 0.5 µM and > 5 µM, respectively.

In the case of `Cc1ccc2c(-c3nc4cc(Br)ncc4n3-c3ccc4c(c3)n(C)c(=O)n4C)c[nH]c2c1`, the IC50 in assay [1] and in assay [2] was > 5 µM each time.

With `Cn1cc(-c2cc3nc(C(C)(C)C)n(-c4cc(N5CCC5)c5c(c4)n(C)c(=O)n5C)c3cc2C(F)F)cn1`, the 50% inhibitory concentration (IC50) is < 0.5 µM in assay [1] and > 5 µM in assay [2].

`Cn1cc(-c2cc3nc(-c4cncn4C)n(-c4cc(N5CCN(C(=O)OC(C)(C)C)CC5)c5c(c4)n(C)c(=O)n5C)c3cc2C(F)F)cn1`: the values for the IC50 in assay [1] and in assay [2] were < 0.5 µM and > 5 µM, respectively.

For the compound `Cn1cc(-c2cc3nc(C(C)(C)C)n(-c4cc(C5CCN(C(=O)OC(C)(C)C)CC5)c5c(c4)n(C)c(=O)n5C)c3cc2F)cn1`, the concentration for half-maximal inhibition (IC50) in assay [1] was 0.5 to 5 µM; in assay [2], > 5 µM.

In the case of `C[C@@H]1COCCN1c1cc(-n2c(C(C)(C)C)nc3cc(-c4cnn(C)c4)c(F)cc32)cc2c1n(C)c(=O)n2C`, the figures for the IC50 in assay [1] and in assay [2] were < 0.5 µM and > 5 µM, respectively.

In the case of `Cn1cc(-c2cc3nc(-c4cncn4C)n(-c4ccc5c(c4)n(C)c(=O)n5C)c3cc2C(=O)O)cn1`, the half-maximal inhibitory concentration (IC50) in assay [1] was 0.5 to 5 µM; in assay [2] it was > 5 µM.
